Assay results taken from patent US5672582A, “Thrombin inhibitors” (Merck & Co., Inc., priority 1994, dated 1997).

The chains behind the UniProt entries cited, without tags or fusion partners. Residues count along the entry.
UniProt P00760, 24-246 limits assumed: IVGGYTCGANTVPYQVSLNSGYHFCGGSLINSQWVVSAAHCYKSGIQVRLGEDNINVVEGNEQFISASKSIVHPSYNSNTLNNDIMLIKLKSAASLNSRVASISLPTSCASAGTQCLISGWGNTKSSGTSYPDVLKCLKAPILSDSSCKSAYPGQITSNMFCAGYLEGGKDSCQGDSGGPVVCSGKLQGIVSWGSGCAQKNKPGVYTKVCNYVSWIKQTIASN

Tests used:
[1] = biological target: human α-thrombin (Homo sapiens, UniProt P00734); assay: Proteinase inhibition assay, human α-thrombin; conditions: for Ratio / Ki: Table 1; for Ratio: Ki trypsin / Ki thrombin; for Ki: read-out: Ki (μM) Thrombin, 25° C., 0.05M TRIS pH 7.4, 0.15M NaCl, 0.1% PEG
[2] = biological target: bovine trypsin (Bos taurus, UniProt P00760); assay: Proteinase inhibition assay, bovine trypsin; conditions: read-out: Ki (μM) Trypsin; Table 1; 25° C., 0.05M TRIS pH 7.4, 0.15M NaCl, 0.1% PEG, 1 mM CaCl2
Method: Assays of human α-thrombin and bovine trypsin were performed at 25° C. in 0.05M TRIS buffer pH 7.4, 0.15M NaCl, 0.1% PEG. Trypsin assays also contained 1 mM CaCl2.
In assays wherein rates of hydrolysis of a p-nitroanilide (pna) substrate were determined, a Thermomax 96-well plate reader was used was used to measure (at 405 nm) the time dependent appearance of p-nitroaniline. sar-PR-pna was used to assay human α-thrombin (Km =125 μM) and bovine trypsin (Km =125 μM). "Sar" is the three letter abbreviation for the amino acid sarcosine (N-methylglycine). p-Nitroanilide substrate concentration was determined from measurements of absorbance at 342 nm using an extinction coefficient of 8270 cm^-1 M^-1.
Activity assays were performed by diluting a stock solution of substrate at least tenfold to a final concentration <0.1 Km into a solution containing enzyme or enzyme equilibrated with inhibitor. Times required to achieve equilibration between enzyme and inhibitor were determined in control experiments. Initial velocities of product formation in the absence (Vo) or presence of inhibitor (Vi) were measured. Assuming competitive inhibition, and that unity is negligible compared Km /[S], [S]/e, and [I]/e (where [S], [I], and e respectively represent the total concentrations, of substrate, inhibitor and enzyme), the equilibrium constant (Ki) for dissociation of the inhibitor from the enzyme can be obtained from the dependence of Vo /Vi on [I] shown in equation 1.
Using the assays described above, the following additional embodiments of the invention were evaluated and shown to be selective for inhibiting thrombin. The constants were determined at pH 7.4 in buffer containing 0.05M Tris, 0.15M NaCl, 0.1% PEG-8000 at room temperature. "ni" denotes Ki >10 μM.

| SMILES | Ratio [1] | Ki [1] [nM] | Ki [2] [µM] | Thrombin inhibitor potency of the two isomers compared ([1]; 4-4 (L) versus 4-3 (D) at Acg center) |
| --- | --- | --- | --- | --- |
| NC(=O)[C@H](C[C@H]1CC[C@H](N)CC1)NC(=O)[C@@H]1CCCN1C(=O)[C@H](N)Cc1ccccc1 | 17 | 18.6 | 0.313 | – |
| NC(=O)[C@@H](NC(=O)[C@@H]1CCCN1C(=O)[C@H](N)Cc1ccccc1)[C@H]1CC[C@H](N)CC1 | 9 | 43 | 0.408 | – |
| CNC(=O)C(=O)[C@@H](NC(=O)[C@@H]1CCCN1C(=O)[C@@H](Cc1ccccc1)NC)[C@H]1CC[C@H](N)CC1 | 12790 | 0.09 | – | more potent thrombin inhibitor |

Continued, in another order:

| Ratio [1] | Ki [1] [nM] | Ki [2] [µM] | SMILES | Thrombin inhibitor potency of the two isomers compared ([1]; 4-4 (L) versus 4-3 (D) at Acg center) |
| --- | --- | --- | --- | --- |
| 267 | 3 | 0.8 | NC(=O)[C@H](NC(=O)[C@@H]1CCCN1C(=O)[C@H](N)Cc1ccccc1)[C@H]1CC[C@H](N)CC1 | – |
| 45 | 9.4 | 0.42 | CN[C@H](Cc1ccccc1)C(=O)N1CCC[C@H]1C(=O)N[C@@H](C[C@H]1CC[C@H](N)CC1)C(=O)C(=O)O | – |
| 2121 | 3.3 | – | CNC(=O)C(=O)[C@H](NC(=O)[C@@H]1CCCN1C(=O)[C@@H](Cc1ccccc1)NC)[C@H]1CC[C@H](N)CC1 | – |
